{"source": "patent US20220023317A1", "about": "“PREVENTING OR MITIGATING CHEMOTHERAPY INDUCED ALOPECIA USING VITAMIN D” (Berg LLC, priority 2013, published 2022)", "key": {"[1]": {"system": "Gottingen Minipig", "assay": "4-week dermal toxicity study in Gottingen Minipigs", "settings": "minipig NOAEL dose vs initial clinical dose 5 μg/mL x 1 mL x 2/day, 60 kg", "procedure": "Observations for morbidity, mortality, injury, and the availability of food and water were conducted twice daily for all animals. Clinical observations were conducted weekly."}, "[2]": {"system": "HEKa cells", "assay": "Antibody microarray (Panorama XP725) of calcitriol-treated HEKa", "assay_type": "cell-based, human", "settings": "calcitriol-treated (24 hour) HEKa", "procedure": "Briefly, the treated HEKa cells were first harvested and then extracted to obtain a soluble protein supernatant. […] The excess dye was removed from the protein sample, and the resulting labeled protein samples were used for microarray incubation. To determine the expression level of a particular target protein at a later time point (e.g., at hour 6 or 24) relative to that at an earlier time point (e.g., at hour 3), the samples were labeled by different labels (e.g., 3-hour extract labeled with Cy3, 6-hour or 24-hour extract labeled with Cy5). […] After incubation with the microarray chip (according to manufactures recommended protocols), the chips were washed and dried. The microarrays were then scanned with a fluorescent laser scanner to measure the relative fluorescence intensity of the Cy3 and Cy5 dyes. If the amount of a particular type of target protein increased (or decreased) over time, more (or less) of the dye associated with the later time point (e.g., Cy5) will be retained by the microarray. For example, in this experiment, the earliest time point (e.g., 3-hour) was used as a baseline to determine the relative protein expression level at two later time points (e.g., 6-hour vs. 24-hour). If more Cy5 is retained by the array between 6-24 hours, the expression level of the target protein increased over the time period. […]"}}}
{"smiles": "C=C1/C(=C\\C=C2/CCC[C@]3(C)[C@@H]([C@H](C)CCCC(C)(C)O)CC[C@@H]23)C[C@@H](O)C[C@@H]1O", "note": "[Calcitriol, (1a.3B.5Z.7E)-9,10-secocholesta-5,7,10(19)-triene-1,3,25-triol]", "values": [{"measurement": "margin of safety (MOS)", "setting": "[1]", "value": 20}, {"measurement": "Target Proteins with Decreased (>2-fold) Protein Levels (value = protein)", "setting": "[2]", "value": "Transforming Growth Factorb pan and WAVE and Protein Tyrosine Phosphatase PEST and CD40 and Crk II and Growth Factor Independence1 and Serine Threonine Protein and Cathepsin D"}]}
